Measured values as given in patent publication US7759499B2, “Compounds as inhibitors of hepatitis C virus NS3 serine protease” (Schering Corporation, priority 2004, dated 2010).

Amino acid sequences for entries named in this document (tags omitted). Residues count along the entry.
UniProt P27958, 1027-1657: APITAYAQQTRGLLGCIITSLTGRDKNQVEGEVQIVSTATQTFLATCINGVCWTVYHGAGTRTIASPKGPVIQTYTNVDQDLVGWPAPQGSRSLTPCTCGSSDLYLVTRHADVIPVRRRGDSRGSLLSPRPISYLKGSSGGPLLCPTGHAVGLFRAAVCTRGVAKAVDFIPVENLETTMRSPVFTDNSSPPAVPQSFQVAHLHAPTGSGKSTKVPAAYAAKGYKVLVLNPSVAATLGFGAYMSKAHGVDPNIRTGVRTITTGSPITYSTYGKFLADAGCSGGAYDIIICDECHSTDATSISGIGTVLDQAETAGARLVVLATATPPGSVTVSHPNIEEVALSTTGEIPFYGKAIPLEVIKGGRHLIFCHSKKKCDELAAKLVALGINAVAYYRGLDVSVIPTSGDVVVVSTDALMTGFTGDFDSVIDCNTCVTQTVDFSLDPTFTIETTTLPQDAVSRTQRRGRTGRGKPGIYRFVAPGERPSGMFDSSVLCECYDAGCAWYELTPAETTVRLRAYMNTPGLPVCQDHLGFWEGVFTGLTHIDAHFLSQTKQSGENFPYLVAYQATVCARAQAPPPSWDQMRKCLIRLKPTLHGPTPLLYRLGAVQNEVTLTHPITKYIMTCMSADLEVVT
UniProt P27958, 1658-1711: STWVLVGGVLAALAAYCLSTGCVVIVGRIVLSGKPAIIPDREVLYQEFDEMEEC

Molecular target: Recombinant heterodimeric HCV NS3/NS4A protease (strain 1a) (Hepatitis C virus genotype 1a, UniProt P27958)
Test: Spectrophotometric assay for HCV protease inhibitory activity
Type: biochemical
Settings: Table 1, range

Compound | Ki
C=CCNC(=O)C(=O)C(CCCC)NC(=O)[C@@H]1[C@@H]2[C@H](CN1C(=O)[C@@H](NC(=O)N[C@H](CN(C)S(=O)(=O)N1CCC1)C(C)(C)C)C(C)(C)C)C2(C)C (stereo partly drawn) [Compound 10052] | ≤ 75 nM
C=CCNC(=O)C(=O)C(CCC(F)(F)F)NC(=O)[C@@H]1[C@@H]2[C@H](CN1C(=O)[C@@H](NC(=O)N[C@H](CNS(=O)(=O)N(C)C)C(C)(C)C)C(C)(C)C)C2(C)C (stereo partly drawn) [Compound 10037] | ≤ 75 nM
C#CCCC(NC(=O)[C@@H]1[C@@H]2[C@H](CN1C(=O)[C@@H](NC(=O)N[C@H](CN(C)S(=O)(=O)N(C)C)C(C)(C)C)C(C)(C)C)C2(C)C)C(=O)C(=O)NCC (stereo partly drawn) [Compound 10071] | ≤ 75 nM
CNC(=O)C(=O)[C@@H](CC1CC1)NC(=O)[C@@H]1[C@@H]2[C@H](CN1C(=O)[C@@H](NC(=O)N[C@H](CN(C)S(=O)(=O)N(C)C)C(C)(C)C)C(C)(C)C)C2(C)C [Compound 10039] | ≤ 75 nM
CN(C)S(=O)(=O)N(C)C[C@@H](NC(=O)N[C@H](C(=O)N1C[C@H]2[C@@H]([C@H]1C(=O)NC(CC1CC1)C(=O)C(N)=O)C2(C)C)C(C)(C)C)C1CCCCC1 (stereo partly drawn) [Compound 10027] | ≤ 75 nM

Same assay, conditions: Table 2, range

Compound | Ki
C=CCNC(=O)C(=O)C(CCC)NC(=O)[C@@H]1[C@@H]2[C@H](CN1C(=O)[C@@H](NC(=O)N[C@H](CN(C)S(=O)(=O)C(F)(F)F)C(C)(C)C)C(C)(C)C)C2(C)C (stereo partly drawn) [Compound 11091] | ≤ 75 nM
C#CCCC(NC(=O)[C@@H]1[C@@H]2[C@H](CN1C(=O)[C@@H](NC(=O)N[C@H](CN(C)S(=O)(=O)c1cccs1)C(C)(C)C)C(C)(C)C)C2(C)C)C(=O)C(N)=O (stereo partly drawn) [Compound 11207] | ≤ 75 nM
C=CCNC(=O)C(=O)C(CCCC)NC(=O)[C@@H]1[C@@H]2[C@H](CN1C(=O)[C@@H](NC(=O)N[C@H](CN(C)S(=O)(=O)c1ccccn1)C(C)(C)C)C(C)(C)C)C2(C)C (stereo partly drawn) [Compound 11218] | ≤ 75 nM
C=CCNC(=O)C(=O)C(CC=C)NC(=O)[C@@H]1[C@@H]2[C@H](CN1C(=O)[C@@H](NC(=O)N[C@H](CN(C)S(C)(=O)=O)C(C)(C)C)C1CCCCC1)C2(C)C (stereo partly drawn) [Compound 11080] | ≤ 75 nM
CN(C[C@@H](NC(=O)N[C@H](C(=O)N1C[C@H]2[C@@H]([C@H]1C(=O)NC(CC1CCC1)C(=O)C(N)=O)C2(C)C)C(C)(C)C)C(C)(C)C)S(=O)(=O)c1ccccc1 (stereo partly drawn) [Compound 11029] | ≤ 75 nM
CN(C[C@@H](NC(=O)N[C@H](C(=O)N1C[C@H]2[C@@H]([C@H]1C(=O)NC(CC1CCC1)C(=O)C(N)=O)C2(C)C)C(C)(C)C)C(C)(C)C)S(=O)(=O)C(F)(F)F (stereo partly drawn) [Compound 11001] | ≤ 75 nM
CC[C@H](C)[C@@H](CN(C)S(=O)(=O)c1cccs1)NC(=O)N[C@H](C(=O)N1C[C@H]2[C@@H]([C@H]1C(=O)NC(CC1CC1)C(=O)C(=O)NC)C2(C)C)C(C)(C)C (stereo partly drawn) [Compound 11095] | 75 to 250 nM
C#CCCC(NC(=O)[C@@H]1[C@@H]2[C@H](CN1C(=O)[C@@H](NC(=O)N[C@H](CN(C)S(=O)(=O)c1ccccc1)C(C)(C)C)C(C)(C)C)C2(C)C)C(=O)C(N)=O (stereo partly drawn) [Compound 11209] | ≤ 75 nM
C=CCNC(=O)C(=O)C(CC1CC1)NC(=O)[C@@H]1[C@@H]2[C@H](CN1C(=O)[C@@H](NC(=O)N[C@H](CN(C)S(=O)(=O)c1ccccc1C)C(C)(C)C)C(C)(C)C)C2(C)C (stereo partly drawn) [Compound 11346] | ≤ 75 nM
C=CCNC(=O)C(=O)C(CCC)NC(=O)[C@@H]1[C@@H]2[C@H](CN1C(=O)[C@@H](NC(=O)N[C@H](CN(C)S(=O)(=O)c1ccccn1)C(C)(C)C)C1CCCCC1)C2(C)C (stereo partly drawn) [Compound 11276] | ≤ 75 nM
C=CCNC(=O)C(=O)C(CC1CC1)NC(=O)[C@@H]1[C@@H]2[C@H](CN1C(=O)[C@@H](NC(=O)N[C@H](CN(C)S(=O)(=O)c1ccc(OC)cc1)C(C)(C)C)C(C)(C)C)C2(C)C (stereo partly drawn) [Compound 11340] | ≤ 75 nM
CN(C[C@@H](NC(=O)N[C@H](C(=O)N1C[C@H]2[C@@H]([C@H]1C(=O)NC(CC1CCC1)C(=O)C(N)=O)C2(C)C)C1CCCCC1)C(C)(C)C)S(=O)(=O)c1cccs1 (stereo partly drawn) [Compound 11126] | ≤ 75 nM
C=CCNC(=O)C(=O)C(CCCC)NC(=O)[C@@H]1[C@@H]2[C@H](CN1C(=O)[C@@H](NC(=O)N[C@H](CN(C)S(=O)(=O)c1ccc(OC)cc1)C(C)(C)C)C(C)(C)C)C2(C)C (stereo partly drawn) [Compound 11341] | ≤ 75 nM
C=CCNC(=O)C(=O)C(CC1CC1)NC(=O)[C@@H]1[C@@H]2[C@H](CN1C(=O)[C@@H](NC(=O)N[C@H](CN(C)S(=O)(=O)c1ccccn1)C(C)(C)C)C1Cc3ccccc3C1)C2(C)C (stereo partly drawn) [Compound 11378] | 75 to 250 nM
C=CCNC(=O)C(=O)C(CCCC)NC(=O)[C@@H]1[C@@H]2[C@H](CN1C(=O)[C@@H](NC(=O)N[C@H](CN(C)S(=O)(=O)c1ccccn1)C(C)(C)C)C1Cc3ccccc3C1)C2(C)C (stereo partly drawn) [Compound 11375] | ≤ 75 nM
CN(C[C@H](CC(C)(C)C)NC(=O)N[C@H](C(=O)N1C[C@H]2[C@@H]([C@H]1C(=O)NC(CC1CCC1)C(=O)C(N)=O)C2(C)C)C(C)(C)C)S(=O)(=O)c1cccs1 (stereo partly drawn) [Compound 11131] | ≤ 75 nM
C=CCNC(=O)C(=O)C(CCCC)NC(=O)[C@@H]1[C@@H]2[C@H](CN1C(=O)[C@@H](NC(=O)N[C@H](CN(C)S(=O)(=O)c1cccs1)C(C)(C)C)C1Cc3ccccc3C1)C2(C)C (stereo partly drawn) [Compound 11177] | ≤ 75 nM
CC[C@H](C)[C@@H](CN(C)S(C)(=O)=O)NC(=O)N[C@H](C(=O)N1C[C@H]2[C@@H]([C@H]1C(=O)NC(CC1CC1)C(=O)C(=O)NC)C2(C)C)C(C)(C)C (stereo partly drawn) [Compound 11124] | ≤ 75 nM
C=CCNC(=O)C(=O)C(CCC)NC(=O)[C@@H]1[C@@H]2[C@H](CN1C(=O)[C@@H](NC(=O)N[C@H](CN(C)S(=O)(=O)C1CC1)C(C)(C)C)C(C)(C)C)C2(C)C (stereo partly drawn) [Compound 11073] | ≤ 75 nM
C#CCCC(NC(=O)[C@@H]1[C@@H]2[C@H](CN1C(=O)[C@@H](NC(=O)N[C@H](CN(CC)S(=O)(=O)c1cccs1)C(C)(C)C)C(C)(C)C)C2(C)C)C(=O)C(=O)NCC=C (stereo partly drawn) [Compound 11232] | ≤ 75 nM
C=CCNC(=O)C(=O)C(CC1CC1)NC(=O)[C@@H]1[C@@H]2[C@H](CN1C(=O)[C@@H](NC(=O)N[C@H](CN(C)S(=O)(=O)C1CC1)C(C)C)C(C)(C)C)C2(C)C (stereo partly drawn) [Compound 11037] | 75 to 250 nM
CCCCC(NC(=O)[C@@H]1[C@@H]2[C@H](CN1C(=O)[C@@H](NC(=O)N[C@H](CN(C)S(=O)(=O)c1cccs1)C(C)(C)C)C(C)(C)C)C2(C)C)C(=O)C(=O)NCCOC (stereo partly drawn) [Compound 11262] | 75 to 250 nM
CCCCNC(=O)C(=O)C(CCCC)NC(=O)[C@@H]1[C@@H]2[C@H](CN1C(=O)[C@@H](NC(=O)N[C@H](CN(C)S(C)(=O)=O)C(C)(C)C)C1Cc3ccccc3C1)C2(C)C (stereo partly drawn) [Compound 11279] | ≤ 75 nM
C=CCNC(=O)C(=O)C(CCCC)NC(=O)[C@@H]1[C@@H]2[C@H](CN1C(=O)[C@@H](NC(=O)N[C@H](CN(C)S(=O)(=O)c1cccc(Cl)c1)C(C)(C)C)C(C)(C)C)C2(C)C (stereo partly drawn) [Compound 11349] | ≤ 75 nM
CCCCC(NC(=O)[C@@H]1[C@@H]2[C@H](CN1C(=O)[C@@H](NC(=O)N[C@H](CN(C)S(=O)(=O)c1ccccn1)C(C)(C)C)C1CCCCC1)C2(C)C)C(=O)C(=O)NC (stereo partly drawn) [Compound 11316] | ≤ 75 nM
CCCCC(NC(=O)[C@@H]1[C@@H]2[C@H](CN1C(=O)[C@@H](NC(=O)N[C@H](CN(C)S(=O)(=O)c1cccs1)C(C)(C)C)C1Cc3ccccc3C1)C2(C)C)C(=O)C(=O)NCC (stereo partly drawn) [Compound 11291] | ≤ 75 nM
C=CCNC(=O)C(=O)C(CCC)NC(=O)[C@@H]1[C@@H]2[C@H](CN1C(=O)[C@@H](NC(=O)N[C@H](CN(C)S(=O)(=O)CC)C(C)(C)C)C(C)(C)C)C2(C)C (stereo partly drawn) [Compound 11110] | ≤ 75 nM
CC(C)[C@@H](CN(C)S(=O)(=O)C1CC1)NC(=O)N[C@H](C(=O)N1C[C@H]2[C@@H]([C@H]1C(=O)NC(CC1CCC1)C(=O)C(N)=O)C2(C)C)C(C)(C)C (stereo partly drawn) [Compound 11038] | ≤ 75 nM

Same assay, conditions: Table 3, range

Compound | Ki
CC(C)[C@@H](CNS(=O)(=O)c1cccs1)NC(=O)N[C@H](C(=O)N1C[C@H]2[C@@H]([C@H]1C(=O)NC(CC1CCC1)C(=O)C(N)=O)C2(C)C)C(C)(C)C (stereo partly drawn) [Compound 12009] | ≤ 75 nM

Same assay, conditions: Table 4, range

Compound | Ki
C=CCNC(=O)C(=O)C(CCC)NC(=O)[C@@H]1[C@@H]2[C@H](CN1C(=O)[C@@H](NC(=O)N[C@H](CN(C)C(=O)C(F)(F)F)C(C)(C)C)C1CCCCC1)C2(C)C (stereo partly drawn) [Compound 13032] | ≤ 75 nM

Same assay, conditions: Table 5, range

Compound | Ki
CC(C)(C)OC(=O)N1CCCC(NC(=O)N[C@H](C(=O)N2C[C@H]3[C@@H]([C@H]2C(=O)NC(CC2CCC2)C(=O)C(N)=O)C3(C)C)C(C)(C)C)C1 (stereo partly drawn) [Compound 14026] | > 250 nM
C=CCNC(=O)C(=O)C(CC1CC1)NC(=O)[C@@H]1[C@@H]2[C@H](CN1C(=O)[C@@H](NC(=O)N[C@H](CN(C)C(=O)OC(C)(C)C)C1CCCCC1)C1CCCCC1)C2(C)C (stereo partly drawn) [Compound 14055] | > 250 nM
COC(=O)N(C)C[C@@H](NC(=O)N[C@H](C(=O)N1C[C@H]2[C@@H]([C@H]1C(=O)NC(CC1CCC1)C(=O)C(N)=O)C2(C)C)C(C)(C)C)C(C)C (stereo partly drawn) [Compound 14035] | ≤ 75 nM
C#CCCC(NC(=O)[C@@H]1[C@@H]2[C@H](CN1C(=O)[C@@H](NC(=O)N[C@H](CN(C)C(=O)OC(C)(C)C)C(C)(C)C)C(C)(C)C)C2(C)C)C(=O)C(=O)NCC=C (stereo partly drawn) [Compound 14052] | > 250 nM
C=CCNC(=O)C(=O)C(CC1CC1)NC(=O)[C@@H]1[C@@H]2[C@H](CN1C(=O)[C@@H](NC(=O)N[C@H](CNC(=O)OC(C)(C)C)C(C)C)C(C)(C)C)C2(C)C (stereo partly drawn) [Compound 14025] | > 250 nM
CN(C[C@@H](NC(=O)N[C@H](C(=O)N1C[C@H]2[C@@H]([C@H]1C(=O)NC(CC1CCC1)C(=O)C(N)=O)C2(C)C)C1CCCCC1)C(C)(C)C)C(=O)OC(C)(C)C (stereo partly drawn) [Compound 14038] | 75 to 250 nM
C=CCNC(=O)C(=O)C(CC1CC1)NC(=O)[C@@H]1[C@@H]2[C@H](CN1C(=O)[C@@H](NC(=O)N[C@H](CN(C)C(=O)OC)C(C)(C)C)C(C)(C)C)C2(C)C (stereo partly drawn) [Compound 14031] | 75 to 250 nM

Same assay, conditions: Table 5A, range

Compound | Ki
C=CCNC(=O)C(=O)C(CCC1CC1)NC(=O)[C@@H]1[C@@H]2[C@H](CN1C(=O)[C@@H](NC(=O)N[C@H](CN(C)S(=O)(=O)CC)C(C)(C)C)C1Cc3ccccc3C1)C2(C)C (stereo partly drawn) [Compound 11417] | ≤ 75 nM
C=CCNC(=O)C(=O)C(CC1CCC1)NC(=O)[C@@H]1[C@@H]2[C@H](CN1C(=O)[C@@H](NC(=O)N[C@H](CN(C)S(=O)(=O)c1ccccn1)C(C)(C)C)C1Cc3ccccc3C1)C2(C)C (stereo partly drawn) [Compound 11392] | ≤ 75 nM

Same assay, conditions: Table 6

Compound | Ki
C=CCNC(=O)C(=O)C(CCC1CC1)NC(=O)[C@@H]1[C@@H]2[C@H](CN1C(=O)[C@@H](NC(=O)N[C@H](CN(C)S(=O)(=O)CC)C(C)(C)C)C1Cc3ccccc3C1)C2(C)C (stereo partly drawn) [Compound 11417] | 6 nM
